Source: PMC5566547

Molecular target: T1, Thymine DNA glycosylase (TDG), full-length wild-type human, N-terminal hexahistidine tag (human), Q13569
T1 chain: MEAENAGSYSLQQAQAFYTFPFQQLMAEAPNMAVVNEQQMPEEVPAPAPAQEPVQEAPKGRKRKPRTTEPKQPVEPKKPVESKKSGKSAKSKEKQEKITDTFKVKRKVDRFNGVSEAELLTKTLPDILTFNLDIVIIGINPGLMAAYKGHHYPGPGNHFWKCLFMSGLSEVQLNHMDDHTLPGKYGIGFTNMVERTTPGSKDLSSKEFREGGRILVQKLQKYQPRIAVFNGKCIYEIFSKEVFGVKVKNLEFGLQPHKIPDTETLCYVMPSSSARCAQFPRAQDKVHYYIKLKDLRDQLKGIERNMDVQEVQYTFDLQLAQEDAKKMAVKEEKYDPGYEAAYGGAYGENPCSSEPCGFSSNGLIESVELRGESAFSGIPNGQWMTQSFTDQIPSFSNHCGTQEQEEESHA
Assay: SEC; Superdex 200 10/300 GL; separate injections of NEIL1 E3Q or TDG alone (5nmoles in 0.5 ml); SEC buffer 70 mM MOPS pH7.5, 5% glycerol, 1 mM EDTA, 1 mM DTT, 100 mM KCl; column calibrated with mass standards
Conditions: remark: other sources report otherwise

B1: Thymine DNA glycosylase (TDG), full-length wild-type human, N-terminal hexahistidine tag, Q13569 1-410 (enzyme)
chain: MEAENAGSYSLQQAQAFYTFPFQQLMAEAPNMAVVNEQQMPEEVPAPAPAQEPVQEAPKGRKRKPRTTEPKQPVEPKKPVESKKSGKSAKSKEKQEKITDTFKVKRKVDRFNGVSEAELLTKTLPDILTFNLDIVIIGINPGLMAAYKGHHYPGPGNHFWKCLFMSGLSEVQLNHMDDHTLPGKYGIGFTNMVERTTPGSKDLSSKEFREGGRILVQKLQKYQPRIAVFNGKCIYEIFSKEVFGVKVKNLEFGLQPHKIPDTETLCYVMPSSSARCAQFPRAQDKVHYYIKLKDLRDQLKGIERNMDVQEVQYTFDLQLAQEDAKKMAVKEEKYDPGYEAAYGGAYGENPCSSEPCGFSSNGLIESVELRGESAFSGIPNGQWMTQSFTDQIPSFSNHCGTQEQEEESHA
**Q.** How did the stoichiometry N turn out when B1 was run?
**A.** 2
